Only some compounds are listed: those with a hit (about 2.8% of all), similar ones and a draw of the others.
PglD DTNB – PglD (C. jejuni) enzyme inhibition; purified PglD enzyme, DTNB colorimetric CoA detection; inhibition, % at 12.5 µM; actives 0.098% (n = 360,000); in the data active = inhibition above about 16%, passing the limit was not always enough; inconclusive = no clear call, values can overlap the other calls
C2C12 statin – suppressors of simvastatin-induced myotoxicity in C2C12 myotubes. rescue of ATP level, % at 7.49 µM. ATP luminescence, 48 h; scaled: DMSO 0, geranylgeraniol control 100. actives 0.78% (n = 330,000);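 active = mean ATP rescue above about 67%, or every replicate alone reaching that limit, limit read from the data, passing the limit was not always enough; inconclusive = no clear call, values can overlap the other calls; inactive = mean under the limit and some replicate under it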;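 also: myotubes were challenged with 10 µM simvastatin during compound exposure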
PGC1a acetyl inh – PGC1a acetylation modulation, inhibitor mode. U2OS PGC1a acetylation, AlphaScreen anti-acetyl-lysine; with virally co-expressed GCN5 acetyltransferase. inhibition, % at 15.6 µM. actives 0.17% (n = 350,000). AID 651687;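 active = every replicate shows inhibition of at least 40%; inconclusive = mean inhibition at least 40% but some replicate below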
Yeast UUG start – modulators of yeast start codon fidelity, primary screen, whole organism, S. cerevisiae, single point, plate reader | AID 602363, 2012 | S. cerevisiae UUG-firefly luciferase reporter, luminescence/redox ratio | activity score, % at 18.7 µM | hit rate 0.13% among 350,000;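 active = replicate mean at a twofold rise or more, about +100% in these data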;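 also: firefly luciferase made from a UUG start codon reports start codon fidelity; reporter light over untreated wells divided by growth signal over untreated wells; some hits fall short of that in this replicate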
E-selectin induc – induces E-selectin expression in human endothelial cells; activation, % at 7.58 µM; actives 0.37% (n = 260,000); P16581; HUVEC E-selectin immunofluorescence imaging; normalized: neutral wells 0, TNF-alpha wells 100; AID 686992;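 active = mean E-selectin-positive cell signal at least 10% of the positive control, reached in at least 60% of replicates, without over 20% cell loss; inconclusive = no rule given, readout overlaps actives, possibly toxicity-flagged; inactive = the rest, including those meeting only one limit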
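Assay system: HUVEC, human umbilical vein endothelial cells / Amount: 3,000 HUVEC/well / Controls: TNF-alpha positive control, DMSO neutral control / Compound dosing: single concentration / Medium: EGM-2 over gelatin coat / Evaluation: percent E-selectin-positive cells / Signal: immunofluorescence imaging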
esBAF inh – blocks esBAF chromatin remodeling in mouse ES cells | Bmi1-luciferase knock-in reporter, 24 h; 100% = twice the neutral-well signal | reporter increase, % at 12.5 µM | actives 2% (n = 350,000) | AID 602393; in the data active = activation above about 40%; inconclusive = no clear call, values can overlap the other calls;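 also: a rise in the Bmi1 reporter signal indicates esBAF inhibition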
Large screens that a line does not name were inactive.

C[C@H]1CN([C@@H](C)CO)C(=O)Cc2cc(NC(=O)Cc3cn(C)c4ccccc34)ccc2O[C@@H]1CN(C)C(=O)Nc1ccc(C(F)(F)F)cc1	E-selectin induc 50.1
C[C@@H]1CN([C@@H](C)CO)C(=O)Cc2cc(NC(=O)Cc3cn(C)c4ccccc34)ccc2O[C@H]1CN(C)C(=O)Nc1ccc(C(F)(F)F)cc1	none
C[C@H]1CN([C@@H](C)CO)C(=O)Cc2cc(NC(=O)Cc3cn(C)c4ccccc34)ccc2O[C@H]1CN(C)C(=O)Nc1ccc(C(F)(F)F)cc1	none
C[C@H](CO)N1C[C@H](C)[C@H](CN(C)Cc2ccccc2)Oc2ccc(NC(=O)Cc3cn(C)c4ccccc34)cc2CC1=O	none (no result: PGC1a acetyl inh)
C[C@H](CO)N1C[C@H](C)[C@@H](CN(C)Cc2ccc(-c3ccccc3)cc2)Oc2ccc(NC(=O)Cc3cn(C)c4ccccc34)cc2CC1=O	C2C12 statin 101.9 (no result: PglD DTNB, Yeast UUG start)
CCOc1cc(CNCc2cccs2)cc(Br)c1OC	C2C12 statin 97.1 (no result: E-selectin induc)
Cc1ccc2[nH]c3c(c2c1)CC/C(=C/c1ccccc1)C3=O	esBAF inh 90.6 (no result: E-selectin induc)
N#CC(C#N)=C1C=CC=CN1/C(=C\c1ccco1)C(=O)c1ccccc1	none (no result: PglD DTNB, C2C12 statin, PGC1a acetyl inh, Yeast UUG start, esBAF inh)
COc1ccc(C(=O)/C(=C\c2ccco2)N2C=CC=CC2=C(C#N)C#N)cc1	PGC1a acetyl inh 71.3 (no result: E-selectin induc)
CCC(C)c1ccc(Nc2ncccc2C#N)cc1 (configuration not stated)	esBAF inh 80.8 (no result: PGC1a acetyl inh, E-selectin induc)
COc1ccccc1Cc1c(-c2ccc(C)cc2)nc2ccc(Cl)cn12	esBAF inh 63.1
COc1ccc(Cc2c(-c3ccc(C)cc3)nc3ccc(Cl)cn23)c(C)c1	esBAF inh 64.9
Cc1ccnc(NC(=O)CCC(=O)N(CC(=O)NCC2CCCO2)Cc2ccc(F)cc2)c1 (configuration not stated)	C2C12 statin 91.3 (no result: E-selectin induc)
CCOC(=O)c1cc2c(=Cc3ccc(N(C)C)cc3)c3ccccc3n2[n+]1C	E-selectin induc 138.7 (no result: PglD DTNB, C2C12 statin, PGC1a acetyl inh, Yeast UUG start, esBAF inh)
Cc1cc2c(=Cc3ccc(N(C)C)cc3)c3ccccc3n2[n+]1C	E-selectin induc 49.0 (no result: PglD DTNB, C2C12 statin, PGC1a acetyl inh, Yeast UUG start, esBAF inh)
CCOC(=O)SC1=N/C(=C\c2ccc(N(C)C)cc2)C(=O)S1	none (no result: PglD DTNB, Yeast UUG start, E-selectin induc)
CC1=NN(c2cccc(F)c2)C(=O)/C1=C/c1ccc(N(C)C)cc1	none (no result: E-selectin induc)
CN(C)S(=O)(=O)Oc1cccc(C(=O)Nc2ccccc2Cl)c1	esBAF inh 72.1 (no result: E-selectin induc)
CCCNC(=O)N1CC2(C1)[C@@H](c1ccccc1)[C@@H](CO)N2Cc1cccc(F)c1	none (no result: PglD DTNB, C2C12 statin, Yeast UUG start, esBAF inh)
CCC(=O)N[C@@H]1C=C[C@H](CC(=O)NCCN2CCCCC2)O[C@H]1CO	none
C[C@@H]1CN([C@H](C)CO)S(=O)(=O)c2ccc(C#CC3CC3)cc2O[C@H]1CN(C)Cc1cncnc1	none (no result: PglD DTNB, Yeast UUG start, esBAF inh)
O=[N+]([O-])c1ccc(-c2cn(-c3ccccc3F)c(=S)[nH]2)cc1	none (no result: PglD DTNB, C2C12 statin, Yeast UUG start, esBAF inh)
Cc1ccc(-c2cn(-c3ccccc3F)c(=S)[nH]2)cc1	esBAF inh 46.7
C[C@@H]1CN([C@H](C)CO)S(=O)(=O)c2ccc(C3=CCCC3)cc2O[C@@H]1CN(C)C(=O)C1CC1	none (no result: PglD DTNB, Yeast UUG start, esBAF inh)
O=C(NCc1nnnn1-c1ccc(F)cc1)c1ccc([N+](=O)[O-])o1	C2C12 statin 69.5 (no result: PglD DTNB, PGC1a acetyl inh, Yeast UUG start)
Cc1ccc(-n2nnnc2CNC(=O)c2ccc([N+](=O)[O-])o2)cc1C	C2C12 statin 80.3 (no result: PglD DTNB, PGC1a acetyl inh, Yeast UUG start)
CC(C)CC#Cc1ccc([C@H]2[C@@H](CO)N3C(=O)CN(C(=O)NC4CCCC4)C[C@H]23)cc1	none (no result: PglD DTNB, C2C12 statin, PGC1a acetyl inh, Yeast UUG start, esBAF inh)
CC(=O)C1=C(NC(=O)c2ccc(F)cc2)CC2C1C2(C)C (configuration not stated)	none (no result: E-selectin induc)
C/C(NC(=O)c1ccccc1)=C1/C(=O)CC2C1C2(C)C (configuration not stated)	esBAF inh 52.0 (no result: E-selectin induc)
CO[C@@H]1CN(C)C(=O)c2cc(NS(=O)(=O)c3ccccc3)ccc2OC[C@H](C)N(Cc2nccs2)C[C@@H]1C	none
O=C(CCCCCNC(=O)c1ccccc1Br)N=Nc1c(O)[nH]c2ccccc12	E-selectin induc 88.1 (no result: PglD DTNB, PGC1a acetyl inh, Yeast UUG start)
O=C(CNC(=O)Cc1ccccc1)N=Nc1c(O)[nH]c2ccccc12	none (no result: E-selectin induc)
COc1ccccc1-c1cnc2c(c1)C(=O)N([C@H](C)CO)C[C@H](C)[C@@H](CN(C)C(C)=O)O2	none
CCOC(=O)C1(CCOC)CCN(Cc2nc(-c3cccs3)oc2C)CC1	C2C12 statin 86.2 (no result: E-selectin induc)
C[C@H]1CN([C@@H](C)CO)C(=O)c2cc(-c3ccncc3)cnc2O[C@H]1CN(C)S(=O)(=O)c1ccc(F)cc1	none (no result: Yeast UUG start)
O=C(N/N=C\c1ccc(F)cc1)c1csnn1	esBAF inh 44.1 (no result: E-selectin induc)
CC(SC(C)C(=O)NN=Cc1ccc(F)cc1)C(=O)NN=Cc1ccc(F)cc1 (configuration not stated)	C2C12 statin 122.3 (no result: E-selectin induc, esBAF inh)
Cc1ccccc1/C=N\NC(=O)c1csnn1	none (no result: C2C12 statin, E-selectin induc)
O=C(N[C@H]1CC[C@H](CCNS(=O)(=O)c2ccc(F)cc2)O[C@@H]1CO)C1CCOCC1	none
COc1cccc(OCc2nc3ccccc3c(=O)n2N)c1	esBAF inh 46.6 (no result: C2C12 statin, E-selectin induc)
CC(C)(C)[S@@](=O)N1Cc2cc(C(=O)NCCc3ccncc3)nc(-c3cccc(-c4ccc(C#N)cc4)c3)c2[C@H]1CCO	none (no result: Yeast UUG start)
COC(=O)C(C)n1cnc2c(cnn2-c2ccc(Cl)cc2)c1=O (configuration not stated)	esBAF inh 53.4 (no result: E-selectin induc)
CC(C)COC(=O)N(C)c1ccc(C(O)(C(F)(F)F)C(F)(F)F)cc1	esBAF inh 45.2 (no result: C2C12 statin, E-selectin induc)
Cc1cc(N2CCOCC2)nc2ccc(NC(=S)N3CCN(c4ccccc4)CC3)cc12	none (no result: PglD DTNB, C2C12 statin, PGC1a acetyl inh, Yeast UUG start, esBAF inh)
COc1ccc(NC(=O)CCC(=O)Nc2ccc3nc(N4CCOCC4)cc(C)c3c2)c(OC)c1	esBAF inh 42.1
Cc1cc(N2CCOCC2)nc2ccc(Cl)cc12	esBAF inh 56.9 (no result: PglD DTNB, PGC1a acetyl inh, Yeast UUG start)
CCC(C)N1CC(O)=C(c2nc3ccccc3[nH]2)C1=N (configuration not stated)	esBAF inh inconclusive (no result: E-selectin induc)
CC1C(O)=C(c2nc3ccccc3[nH]2)C(=N)N1c1ccccc1 (configuration not stated)	esBAF inh 48.0 (no result: E-selectin induc)
N=C1C(c2nc3ccccc3[nH]2)=C(O)CN1c1ccc(CC(=O)O)cc1	none (no result: E-selectin induc)
N=C1C(c2nc3ccccc3[nH]2)=C(O)CN1c1ccccc1	esBAF inh 62.7 (no result: E-selectin induc)
CO[C@@H]1CN(C)C(=O)c2cc(NS(=O)(=O)c3ccccc3C)ccc2OC[C@H](C)NC[C@@H]1C	none
COc1ccc(NC(=O)Nc2ccc3c(c2)[C@H]2C[C@@H](CC(=O)NCc4ccc5c(c4)OCO5)O[C@@H](CO)[C@H]2O3)cc1	none (no result: PglD DTNB, C2C12 statin, Yeast UUG start, esBAF inh)
CC(=O)C1=C(C)Nc2ncnn2C1c1ccccc1OCc1ccccc1 (configuration not stated)	C2C12 statin 114.3 (no result: E-selectin induc)
CCOC(=O)C1=C(C)Nc2ncnn2C1c1ccccc1F (configuration not stated)	C2C12 statin 80.5 (no result: E-selectin induc)
C/C(=N/OC(=O)c1ccccc1Br)c1ccc(C)cc1	esBAF inh 63.7

Screening results: PubChem, Broad Institute
